Results from patent US4824941A, “Specific antibody to the native form of 2'5'-oligonucleotides, the method of preparation and the use as reagents in immunoassays or for binding 2'5'-oligonucleotides in biological systems” (priority 1988, dated 1989).

Legend:
2'5'-oligo(A) synthetase = 2'5'-oligo(A) synthetase in interferon treated Hela cells; type: cell-based; settings: Hela S3, 20 units/ml, 24 hrs
Method: Cultures of Hela cells respond very well to interferon in the induction of 2'5'-oligo(A) synthetase (see example 1). The basal 2'5'-oligo(A) itself was too low to be measured by other methodology. […] Hela cells of the S3 line are cultivated in the presence of 20 units/ml of interferon α2 for 24 hrs. The cells are centrifuged and processed according to example 4. The 2'5'-oligo(A) synthetase is assayed by methods well described in the literature in parallel cultures. The synthetase increases 10-fold over the basal level, while the 2'5'-oligo(A) itself remains at the basal level of 0.45±0.15 nM.

Hela cells = assay: 2'5'-oligo(A) content in interferon treated Hela cells; type: cell-based; settings: Hela S3, 20 units/ml, 24 hrs
Method: This is an example for cells growing in culture, but is universally applicable to any biological material: cell cultures, organs, tissues, bodily fluids such as blood, urine, cerebrospinal fluids, milk or any other suitably available material. Cells in a petri dish are rapidly washed with buffered saline (this step is dispensed with in the case of bodily fluids), then enough ice cold 5% trichloracetic acid (TCA) to cover the layer of cells (3 ml for a 7 cm diameter petri dish) and the dish is kept on ice for 5 min. The TCA and detached cells are removed and centrifuged to remove the insoluble material, and the dish and pellet are re-extracted with a similar volume of 5% TCA and the supernatants pooled. Alternatively, in the case of a cell suspension culture, the cells are pelleted by centrifugation at room temperature, the cells resuspended in a volume of buffered saline equal to the volume of the pellet, and approximately 10 volumes of 5% TCA are added. The insoluble material is removed by centrifugation and the pellet extracted with 1/2 the previous volume of 5% TCA. The supernatants are pooled. All operations with TCA are performed between 0° C. and 5° C. […]
Cultures of Hela cells respond very well to interferon in the induction of 2'5'-oligo(A) synthetase (see example 1). The basal 2'5'-oligo(A) itself was too low to be measured by other methodology. […]

Substance: interferon α2: interferon α2, 20 units/ml for 24 hrs
- increase of 2'5'-oligo(A) synthetase over the basal level (2'5'-oligo(A) synthetase): 10 fold
- 2'5'-oligo(A) level (remains at the basal level) (Hela cells): 0.45 ± 0.15 nM
